Source: ChEMBL document CHEMBL3608270, “Advances in tetrahydropyrido[1,2-a]isoindolone (valmerins) series: Potent glycogen synthase kinase 3 and cyclin dependent kinase 5 inhibitors” (Eur J Med Chem, 2015)

Assay: Selectivity index, ratio of IC50 for human recombinant CDK5/p25 to porcine brain GSK3alpha/beta

For `O=C(Nc1cnccn1)Nc1cccc2c1C1CC3(CCN1C2=O)SCCS3` (centres undefined), which Ratio IC50 is on record?
Its Ratio IC50 is 3.4.

For `Cc1cnc(NC(=O)Nc2cccc3c2C2CC4(CCN2C3=O)SCCS4)cn1` (centres undefined), which Ratio IC50 is on record?
The Ratio IC50 was 4.

Which Ratio IC50 does the source give for `O=C(Nc1cnccn1)Nc1cccc2c1[C@@H]1C[C@H](O)CCN1C2=O` (relative stereo) here?
Its Ratio IC50 is 2.6.

With `COc1cc(NC(=O)Nc2cccc3c2[C@@H]2C[C@H](O)CCN2C3=O)nc2ccccc12` (relative stereo) as the compound, how does the Ratio IC50 read?
The Ratio IC50 was 140.
